Literature values in patent publication US20100286257A1, “Methods Of Use Of Nitroalkane Compositions In Dermatologic Applications To Prevent or Treat Skin Aging” (priority 2009, published 2010).
pIC50: −log10 of the molar value.

By UniProt entry, the sequences of proteins in these tests, tags left out. Where a name states a change or a piece, a line headed by the entry shows the natural chain unless it says otherwise.
UniProt P46406: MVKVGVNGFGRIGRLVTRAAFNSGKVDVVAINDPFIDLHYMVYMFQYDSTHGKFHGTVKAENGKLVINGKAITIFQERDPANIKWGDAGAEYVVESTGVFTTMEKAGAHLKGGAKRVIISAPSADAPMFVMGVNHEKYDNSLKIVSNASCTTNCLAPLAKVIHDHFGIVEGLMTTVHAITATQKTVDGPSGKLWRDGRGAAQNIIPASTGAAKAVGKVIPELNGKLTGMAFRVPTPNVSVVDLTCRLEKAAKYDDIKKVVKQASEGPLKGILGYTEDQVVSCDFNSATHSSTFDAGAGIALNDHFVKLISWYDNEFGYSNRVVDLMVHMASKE

Target: Glyceraldehyde-3-phosphate dehydrogenase (GAPDH) (Oryctolagus cuniculus, UniProt P46406)
Settings: reported in Batthyany et al., J Biol Chem, 2006 281:20450-63; read-out: IC50 for GAPDH inhibition

## 9-, 10-, 12- and 13-nitro- cis-octedecadienoic acids [nitro-linoleic acid]
  pIC50: 5.52
